SMILES strings stand for the structures. Only a part is listed here, and it is no random draw. Inconclusive results are not listed. Calls of active or inactive are those of the source. The call rests on the fitted dose curve; cell line not stated here.
On the % scale 0 is the no-effect control and ±100 the full control effect.

The test is described as follows: qHTS for Antagonists of gsp, the Etiologic Mutation Responsible for Fibrous Dysplasia/McCune-Albright Syndrome: qHTS. Further: nearly all actives have a fitted effect of over 65% in size. Particulars: gsp-mutant cells, cAMP HTRF, 30 min; at 76.9 µM (top of the series) unless noted.
Regarding `Cc1cc(N(CCCl)CCCl)ccc1C=O`, the activity change, negative = inhibition was inactive: 8.17%.

Take `CCCN1CCC(Nc2cc(OC)cc(OC)c2)CC1`: the activity change, negative = inhibition is inactive: -21.7%.

For `c1ccc(CN2CCC(Nc3ccccc3)CC2)cc1`, the activity change, negative = inhibition was inactive: 3.69%.

In the case of `CN(C)C1(CNC(=O)c2cccc(C#N)c2)CCCCC1`, the activity change, negative = inhibition is inactive: 8.5%.

As to `CCOC(=O)C(CC)C1=NC(C)(C)Cc2ccccc21.O=[N+]([O-])c1cc([N+](=O)[O-])c(O)c([N+](=O)[O-])c1` (configuration not stated), the activity change, negative = inhibition is inactive: -15.3%.

Regarding `CC(C)(C)OC(=O)N1CCC(N(C(=O)c2ccccc2)c2ccc(Cl)cc2)CC1`, the activity change, negative = inhibition was inactive: -18.2%.

Regarding `N#Cc1ccc(C(=O)NCC2(N3CCCCC3)CCCCC2)cc1`, the activity change, negative = inhibition was inactive: -15.3%.

On to `O=C(O)c1cccc(Nc2c([N+](=O)[O-])cc([N+](=O)[O-])cc2[N+](=O)[O-])c1`, for which the activity change, negative = inhibition is inactive: -12.6%.

Consider `O=C(OC1CN2CCC1CC2)C1c2ccccc2C=Cc2ccccc21` (configuration not stated), for which the activity change, negative = inhibition is inactive: 10.9%.

Regarding `CCc1cc(C(=O)NCC2(N3CCCCC3)CCCCC2)sc1C`, the activity change, negative = inhibition was inactive: 5.72%.

`N/C(=N\O)c1c(N)no[n+]1[O-]`: the activity change, negative = inhibition was inactive: 4.58% [at 15.4 µM].

On to `CCOC(=O)N1CCC(Nc2ccc(C)cc2)CC1`, for which the activity change, negative = inhibition is inactive: -5.31%.

For the compound `COc1ccc(C(=O)NCC2(N3CCOCC3)CCCCC2)cc1OC`, the activity change, negative = inhibition is inactive: 6.29%.

As to `O=C(NCC1(N2CCOCC2)CCCCC1)c1cc(Br)ccc1Cl`, the activity change, negative = inhibition is inactive: -4.93%.

Consider `COc1cc(C(=O)NCC2(N3CCOCC3)CCCCC2)cc(OC)c1C`, for which the activity change, negative = inhibition is inactive: -13.8%.

For the compound `CN1CCC(Nc2ccc(Cl)cc2)CC1`, the activity change, negative = inhibition is inactive: 4.2%.

As to `CCC(CO)(C(=O)OC1CN2CCC1CC2)c1ccccc1` (configuration not stated), the activity change, negative = inhibition is inactive: 5.65%.

With `COc1cccc(C(=O)N(c2cc(C)cc(C)c2)C2CCN(C(=O)OC(C)(C)C)CC2)c1`, the activity change, negative = inhibition is inactive: -20.5%.

In the case of `CCCOc1ccc(C(=O)NCC2(N(C)C)CCCCC2)cc1`, the activity change, negative = inhibition is inactive: 13.6%.

On to `O=C(O)C1(Nc2ccccc2)CCN(Cc2ccccc2)CC1`, for which the activity change, negative = inhibition was inactive: 9.87%.

With `CC(C)(C)OC(=O)N1CCC(Nc2ccccc2)CC1`, the activity change, negative = inhibition is inactive: -3.21%.

On to `CN1CCC(Nc2ccc(F)c(Cl)c2)CC1`, for which the activity change, negative = inhibition is inactive: -0.82%.

Regarding `CCOc1ncccc1C(=O)NCC1(N2CCOCC2)CCCCC1`, the activity change, negative = inhibition is inactive: -4.42%.

`Cn1c(=O)[nH]cc(N(CCCl)CCCl)c1=O`: the activity change, negative = inhibition is inactive: 15.1%.

Consider `CN(C)c1ccc(C(=O)NCC2(N3CCCCC3)CCCCC2)cc1`, for which the activity change, negative = inhibition was inactive: 6.45%.

For `O=C(NCC1(N2CCCCC2)CCCCC1)c1ccco1`, the activity change, negative = inhibition is inactive: 18%.

As for `CCN1CCC(Nc2cccc(F)c2)CC1`, the activity change, negative = inhibition was inactive: 10.8%.

Regarding `Cc1ccccc1NC1(C#N)CCN(Cc2ccccc2)CC1`, the activity change, negative = inhibition was inactive: 10.7%.

As to `Cc1ccc(NC2(C#N)CCN(Cc3ccccc3)CC2)cc1`, the activity change, negative = inhibition was inactive: -2.7%.

As for `Fc1ccccc1NC1CCN(Cc2ccccc2)CC1`, the activity change, negative = inhibition is inactive: 5.41%.

On to `Cc1ccc(C(=O)NCC2(N3CCCCC3)CCCCC2)o1`, for which the activity change, negative = inhibition is inactive: 14.8%.

For `COc1cc(OC)cc(C(=O)NCC2(N3CCCCC3)CCCCC2)c1`, the activity change, negative = inhibition is inactive: 4.12%.

In the case of `CC(=O)N(c1ccccc1)C1CCNCC1`, the activity change, negative = inhibition was inactive: 5.9%.

Turning to `COc1cc(C(=O)NCC2(N(C)C)CCCCC2)ccc1OC(F)F`, the activity change, negative = inhibition is inactive: 3.76%.

With `CCOC(=O)N1CCC(Nc2cccc(C)c2)CC1`, the activity change, negative = inhibition is inactive: -1.48%.

Turning to `COc1ccc(NC2CCN(CCc3ccccc3)CC2)c(OC)c1`, the activity change, negative = inhibition is inactive: -9.32%.

For `CCOC(=O)N1CCC(Nc2ccc(F)cc2)CC1`, the activity change, negative = inhibition is inactive: -3.53%.

On to `O=C(NCC1(N2CCCCC2)CCCCC1)c1ccc(F)cc1`, for which the activity change, negative = inhibition was inactive: 13.5%.

Turning to `O=P1(N(CCCl)CCCl)SCCCS1`, the activity change, negative = inhibition is inactive: 7.68%.

As to `CCCCOc1ccc(C(=O)NCC2(N3CCOCC3)CCCCC2)cc1`, the activity change, negative = inhibition was inactive: -0.511%.

As for `CCOc1ccc(C)cc1CN(CCCl)CCCl`, the activity change, negative = inhibition was inactive: -12.9%.

For `O=C1CCN(Cc2ccccc2)CC1`, the activity change, negative = inhibition was inactive: 9.02%.

As for `CCOC(=O)N1CCC(Nc2ccc(OC)cc2)CC1`, the activity change, negative = inhibition was inactive: 20.9%.

Take `O=C1C(O)=C([N+](=O)[O-])C(=O)C(O)=C1[N+](=O)[O-]`: the activity change, negative = inhibition is inactive: 6.37%.

As to `O=C(OC1CN2CCC1CC2)C1c2ccccc2Oc2ccccc21` (configuration not stated), the activity change, negative = inhibition was inactive: -0.557%.

With `O=C(NCC1(N2CCCCC2)CCCCC1)c1ccc(Cl)s1`, the activity change, negative = inhibition is inactive: -6.09%.

`N#CC1(Nc2ccccc2)CCN(Cc2ccccc2)CC1`: the activity change, negative = inhibition is inactive: -5.86%.

Regarding `O=C(NCC1(N2CCOCC2)CCCCC1)c1cc2ccccc2o1`, the activity change, negative = inhibition is inactive: -9.79%.

In the case of `O=C(NCC1(N2CCCCC2)CCCCC1)c1ccc(Cl)nc1`, the activity change, negative = inhibition is inactive: 5.8%.

Take `Cc1cccc(NC2(C#N)CCN(Cc3ccccc3)CC2)c1`: the activity change, negative = inhibition was inactive: -16.3%.

With `CSc1ccccc1C(=O)NCC1(N2CCCCC2)CCCCC1`, the activity change, negative = inhibition was inactive: -3.49%.

Consider `O=C(NCC1(N2CCCCC2)CCCCC1)c1cccs1`, for which the activity change, negative = inhibition was inactive: 5.39%.

As for `O=C(NCC1(N2CCCCC2)CCCCC1)c1ccc(=O)[nH]c1`, the activity change, negative = inhibition was inactive: 1.39%.

With `CC(C)(C)OC(=O)N1CCC(N(C(=O)c2ccccc2)c2ccc(F)cc2)CC1`, the activity change, negative = inhibition is inactive: 3.23%.

Take `COc1ccc(C(=O)NCC2(N3CCCCC3)CCCCC2)c(OC)c1OC`: the activity change, negative = inhibition was inactive: 11.8%.

Regarding `CCCOc1ccc(C(=O)NCC2(N(C)C)CCCCC2)cc1OC`, the activity change, negative = inhibition was inactive: 8.76%.

As to `O=C(NCC1(N2CCCCC2)CCCCC1)c1cncc(Br)c1`, the activity change, negative = inhibition was inactive: 0.154%.

As to `CN1CCC(Nc2cccc(F)c2)CC1`, the activity change, negative = inhibition is inactive: 6.85%.

In the case of `O=C(OC1CN2CCC1CC2)c1ccc([N+](=O)[O-])cc1` (configuration not stated), the activity change, negative = inhibition was inactive: 8.52%.

For `O=C(NCC1(N2CCOCC2)CCCCC1)c1cc(F)c(F)cc1Cl`, the activity change, negative = inhibition is inactive: 0.223%.

For `COc1cc(OC)c(C(=O)NCC2(N(C)C)CCCCC2)cc1OC`, the activity change, negative = inhibition was inactive: 9.44%.

As for `O=[N+]([O-])c1cc([N+](=O)[O-])c(OC2CCCCC2O)c([N+](=O)[O-])c1` (configuration not stated), the activity change, negative = inhibition was inactive: -26.3%.

Regarding `CN(C)c1cccc(C(=O)NCC2(N3CCCCC3)CCCCC2)c1`, the activity change, negative = inhibition is inactive: 8.1%.

Consider `COc1ccc(CN(CCCl)CCCl)cc1Cl`, for which the activity change, negative = inhibition was inactive: 5.47%.

With `CC(C)c1ccc(NC2CCN(C(=O)OC(C)(C)C)CC2)cc1`, the activity change, negative = inhibition is inactive: -5.91%.

For `CN1CCN(CCOC(=O)C(O)(c2ccccc2)c2ccccc2)CC1`, the activity change, negative = inhibition is inactive: 0.604%.

As to `CC(C)c1ccc(C(=O)NCC2(N3CCOCC3)CCCCC2)cc1`, the activity change, negative = inhibition was inactive: 1.16%.

Consider `COc1ccc(NC2CCN(C(=O)OC(C)(C)C)CC2)cc1`, for which the activity change, negative = inhibition is inactive: 1.68%.

Consider `COc1cc(C(=O)NCC2(N3CCCCC3)CCCCC2)ccc1OC(F)F`, for which the activity change, negative = inhibition was inactive: 13.1%.

Consider `O=C(NCC1(N2CCOCC2)CCCCC1)c1cc(=O)[nH]c2ccccc12`, for which the activity change, negative = inhibition was inactive: 4.52%.

As to `O=C(NCC1(N2CCCCC2)CCCCC1)c1cccc(C(F)(F)F)c1`, the activity change, negative = inhibition was inactive: 9.3%.

In the case of `O=[N+]([O-])c1cc([N+](=O)[O-])c(NCC2CCS(=O)(=O)C2)c([N+](=O)[O-])c1` (configuration not stated), the activity change, negative = inhibition is inactive: -4.19%.

As to `O=C(NCC1(N2CCCCC2)CCCCC1)c1cccc([N+](=O)[O-])c1`, the activity change, negative = inhibition is inactive: 4.55%.

Take `CSc1ccc(C(=O)NCC2(N3CCOCC3)CCCCC2)cc1`: the activity change, negative = inhibition was inactive: 1.28%.

Regarding `N#CC1(Nc2ccccc2)CCN(CCc2ccccc2)CC1`, the activity change, negative = inhibition was inactive: 1.82%.

In the case of `CCN1CCC(Nc2ccc(Cl)cc2)CC1`, the activity change, negative = inhibition was inactive: 13.2%.

As for `O=C(NCC1(N2CCCCC2)CCCCC1)c1ccc(OC(F)F)cc1`, the activity change, negative = inhibition was inactive: 10.7%.

These data come from PubChem BioAssay AID624288 (National Center for Advancing Translational Sciences (NCATS), 2012).
